In publication PMC4631455, “FireProt: Energy- and Evolution-Based Computational Design of Thermostable Multiple-Point Mutants” (PLoS Computational Biology, 2015):

What was measured:
CCCCCCI = test: purified protein
[1] = target: haloalkane dehalogenase DhaA (DhaAwt) (Rhodococcus rhodochrous, UniProt P0A3G2); settings: 37°C, 100 mM glycine buffer pH 8.6; Hill coefficient model with substrate inhibition; substrate inhibition constant
[2] = 57°C, 100 mM glycine buffer pH 8.6, Hill coefficient model, mutant DhaA115, 57.0 °C

haloalkane dehalogenase DhaA (DhaAwt) (Rhodococcus rhodochrous; A155P/A172I/C128F/C176F/C262L/D198W/D266F/E20S/F80R/T148L/V219W)
K0.5 (CCCCCCI; [2]): 5.00 ± 2.31 µM
kcat (CCCCCCI; [2]): 2.85 s⁻¹

CCCCCCI [1-iodohexane]
K si [1]: 0.53 ± 0.01 mM

haloalkane dehalogenase DhaA (DhaAwt) (Rhodococcus rhodochrous)
K0.5 (CCCCCCI; 37°C, 100 mM glycine buffer pH 8.6, Hill coefficient model with substrate inhibition): 12.00 ± 1.14 µM
